Laboratory results: patent publication US6953793B2 (priority 2000, dated 2005)
pIC50: −log10 of the molar value.

Protein sequences, listed by entry. Tags and fused reporters are not part of them. Residues count along the entry.
UniProt P25774, 115-331: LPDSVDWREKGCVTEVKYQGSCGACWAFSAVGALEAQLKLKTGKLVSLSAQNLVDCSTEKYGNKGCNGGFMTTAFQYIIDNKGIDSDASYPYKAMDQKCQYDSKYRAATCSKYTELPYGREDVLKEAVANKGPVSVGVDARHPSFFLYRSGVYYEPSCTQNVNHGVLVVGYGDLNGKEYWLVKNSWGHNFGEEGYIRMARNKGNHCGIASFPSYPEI

target: T1, Recombinant human cathepsin S (CatS) (Homo sapiens, UniProt P25774); assay: biochemical
T1 construct: made in house; host or cells: baculovirus system (insect cells)

First: CC(=O)N1CCc2c(c(-c3ccc(Cl)c(C)c3)nn2CC(O)CN2CCC(n3c(=O)n(CC4CC4)c4ccccc43)CC2)C1 (stereo not drawn) [Example 321, 1-(1-{3-[5-Acetyl-3-(4-chloro-3-methyl-phenyl)-4,5,6,7-tetrahydro-pyrazolo[4,3-c]pyridin-1-yl]-2-hydroxy-propyl}-piperidin-4-yl)-3-cyclopropylmethyl-1,3-dihydro-benzoimidazol-2-one]
Second: CC(=O)N1CCc2c(c(-c3ccc(Cl)c(C)c3)nn2CC(O)CN2CCC(n3c(=O)n(CC(N)=O)c4ccccc43)CC2)C1 (stereo not drawn) [Example 316, 2-[3-(1-{3-[5-Acetyl-3-(4-chloro-3-methyl-phenyl)-4,5,6,7-tetrahydro-pyrazolo[4,3-c]pyridin-1-yl]-2-hydroxy-propyl}-piperidin-4-yl)-2-oxo-2,3-dihydro-benzoimidazol-1-yl]-acetamide]
The pIC50 of the first is 0.55 log units higher: 7.10 for the first, 6.55 for the second.

`CCn1c(=O)n(C2CCN(CCCn3nc(-c4ccc(Br)cc4)c4c3CCN(S(C)(=O)=O)C4)CC2)c2nc(OC)ccc21` [Example 340, 3-(1-{3-[3-(4-Bromo-phenyl)-5-methanesulfonyl-4,5,6,7-tetrahydro-pyrazolo[4,3-c]pyridin-1-yl]-propyl}-piperidin-4-yl)-1-ethyl-5-methoxy-1,3-dihydro-imidazo[4,5-b]pyridin-2-one] and `COc1ccc2c(n1)n(C1CCN(CCCn3nc(-c4ccc(C(F)(F)F)cc4)c4c3CCN(S(C)(=O)=O)C4)CC1)c(=O)n2C` [Example 337, 3-(1-{3-[5-Methanesulfonyl-3-(4-trifluoromethyl-phenyl)-4,5,6,7-tetrahydro-pyrazolo[4,3-c]pyridin-1-yl]-propyl}-piperidin-4-yl)-5-methoxy-1-methyl-1,3-dihydro-imidazo[4,5-b]pyridin-2-one] are within 0.2 log units of each other in pIC50: 7.05 for the first, 7.00 for the second.

`CCn1c(=O)n(C2CCN(CC(O)Cn3nc(-c4ccc(C(F)(F)F)cc4)c4c3CCN(C(C)=O)C4)CC2)c2ccccc21` (stereo not drawn) [Example 301, 1-(1-{3-[5-Acetyl-3-(4-trifluoromethyl-phenyl)-4,5,6,7-tetrahydro-pyrazolo[4,3-c]pyridin-1-yl]-2-hydroxy-propyl}-piperidin-4-yl)-3-ethyl-1,3-dihydro-benzoimidazol-2-one] and `Cn1c(=O)n(C2CCN(C[C@@H](O)Cn3nc(-c4ccc(C(F)(F)F)cc4)c4c3CCN(S(C)(=O)=O)C4)CC2)c2ccccc21` [Example 383, (R)-1-(1-{2-Hydroxy-3-[5-methanesulfonyl-3-(4-trifluoromethyl-phenyl)-4,5,6,7-tetrahydro-pyrazolo[4,3-c]pyridin-1-yl]-propyl}-piperidin-4-yl)-3-methyl-1,3-dihydro-benzoimidazol-2-one] are the same in pIC50: 6.74 for the first, 6.74 for the second.

`COc1ccc2c(c1)oc(=O)n2C1CCN(CC(O)Cn2nc(-c3ccc(Br)cc3)c3c2CCN(C(C)=O)C3)CC1` (stereo not drawn) [Example 392, 3-(1-{3-[5-Acetyl-3-(4-bromo-phenyl)-4,5,6,7-tetrahydro-pyrazolo[4,3-c]pyridin-1-yl]-2-hydroxy-propyl}-piperidin-4-yl)-6-methoxy-3H-benzooxazol-2-one] and `CC(=O)N1CCc2c(c(-c3ccc(Br)cc3)nn2CC(O)CN2CCC(Oc3ccccc3C)CC2)C1` (stereo not drawn) [Example 233, 1-{3-(4-Bromo-phenyl)-1-[2-hydroxy-3-(4-o-tolyloxy-piperidin-1-yl)-propyl]-1,4,6,7-tetrahydro-pyrazolo[4,3-c]pyridin-5-yl}-ethanone] are within 0.2 log units of each other in pIC50: 6.57 for the first, 6.47 for the second.

`CCS(=O)(=O)c1ccc(OCC(=O)OC)c(NC2CCN(CCCn3nc(-c4ccc(Br)cc4)c4c3CCN(C(N)=O)C4)CC2)c1` [Example 228, [2-(1-{3-[3-(4-Bromo-phenyl)-5-carbamoyl-4,5,6,7-tetrahydro-pyrazolo[4,3-c]pyridin-1-yl]-propyl}-piperidin-4-ylamino)-4-ethanesulfonyl-phenoxy]-acetic acid methyl ester] and `CS(=O)(=O)Oc1nc2ccccc2n1C1CCN(CCCn2nc(-c3ccc(Br)cc3)c3c2CCN(S(C)(=O)=O)C3)CC1` [Example 104, Methanesulfonic acid 1-(1-{3-[3-(4-bromo-phenyl)-5-methanesulfonyl-4,5,6,7-tetrahydro-pyrazolo[4,3-c]pyridin-1-yl]-propyl}-piperidin-4-yl)-1H-benzoimidazol-2-yl ester] are within 0.2 log units of each other in pIC50: 6.77 for the first, 6.92 for the second.

First: CC(=O)N1CCc2c(c(-c3ccc(Cl)c(C(F)(F)F)c3)nn2CC(O)CN2CCC(n3c(=O)[nH]c4ccccc43)CC2)C1 (stereo not drawn) [Example 280, 1-(1-{3-[5-Acetyl-3-(4-chloro-3-trifluoromethyl-phenyl)-4,5,6,7-tetrahydro-pyrazolo[4,3-c]pyridin-1-yl]-2-hydroxy-propyl}-piperidin-4-yl)-1,3-dihydro-benzoimidazol-2-one]
Second: CC(=O)N1CCc2c(c(-c3ccc(Cl)c([N+](=O)[O-])c3)nn2CC(O)CN2CCC(n3c(=O)[nH]c4ccccc43)CC2)C1 (stereo not drawn) [Example 256, 1-(1-{3-[5-Acetyl-3-(4-chloro-3-nitro-phenyl)-4,5,6,7-tetrahydro-pyrazolo[4,3-c]pyridin-1-yl]-2-hydroxy-propyl}-piperidin-4-yl)-1,3-dihydro-benzoimidazol-2-one]
The pIC50 of the first is 0.45 log units higher: 6.64 for the first, 6.19 for the second. The first is the more potent here.

First: CC(=O)N1CCc2c(c(-c3ccc(I)cc3)nn2CC(O)CN2CCC(n3c(=O)[nH]c4c(F)ccc(C#N)c43)CC2)C1 (stereo not drawn) [Example 266, 3-(1-{3-[5-Acetyl-3-(4-iodo-phenyl)-4,5,6,7-tetrahydro-pyrazolo[4,3-c]pyridin-1-yl]-2-hydroxy-propyl}-piperidin-4-yl)-7-fluoro-2-oxo-2,3-dihydro-1H-benzoimidazole-4-carbonitrile]
Second: CC(=O)N1CCc2c(c(-c3ccc(I)cc3)nn2CC(O)CN2CCC(n3c(=O)[nH]c4ccc(F)cc43)CC2)C1 (stereo not drawn) [Example 267, 1-(1-{3-[5-Acetyl-3-(4-iodo-phenyl)-4,5,6,7-tetrahydro-pyrazolo[4,3-c]pyridin-1-yl]-2-hydroxy-propyl}-piperidin-4-yl)-6-fluoro-1,3-dihydro-benzoimidazol-2-one]
The pIC50 of the first is 0.37 log units lower: 6.18 for the first, 6.55 for the second. The second is the more potent here.

Going from `CS(=O)(=O)N1CCc2c(c(-c3ccc(C(F)(F)F)cc3)nn2CCCN2CCC(n3ccc4ccc(Cl)cc43)CC2)C1` [Example 193, 1-{3-[4-(6-Chloro-indol-1-yl)-piperidin-1-yl]-propyl}-5-methanesulfonyl-3-(4-trifluoromethyl-phenyl)-4,5,6,7-tetrahydro-1H-pyrazolo[4,3-c]pyridine] to `CS(=O)(=O)N1CCc2c(c(-c3ccc(C(F)(F)F)cc3)nn2CC(O)CN2CCC(n3c(=O)oc4cccnc43)CC2)C1` (stereo not drawn) [Example 397, 3-(1-{2-Hydroxy-3-[5-methanesulfonyl-3-(4-trifluoromethyl-phenyl)-4,5,6,7-tetrahydro-pyrazolo[4,3-c]pyridin-1-yl]-propyl}-piperidin-4-yl)-3H-oxazolo[4,5-b]pyridin-2-one], the pIC50 rises from 6.36 to 6.92 (0.56 log units). The second is the more potent here.

First: CC(=O)N1CCc2c(c(-c3ccc(Cl)c(C)c3)nn2CC(O)CN2CCC(N3c4ccccc4CC3C)CC2)C1 (stereo not drawn) [Example 176, 1-(3-(4-Chloro-3-methyl-phenyl)-1-{2-hydroxy-3-[4-(2-methyl-2,3-dihydro-indol-1-yl)-piperidin-1-yl]-propyl}-1,4,6,7-tetrahydro-pyrazolo[4,3-c]pyridin-5-yl)-ethanone]
Second: CC(=O)N1CCc2c(c(-c3ccc(Cl)c(C)c3)nn2CC(O)CN2CCC(n3c(=O)n(CC(=O)O)c4ccccc43)CC2)C1 (stereo not drawn) [Example 327, [3-(1-{3-[5-Acetyl-3-(4-chloro-3-methyl-phenyl)-4,5,6,7-tetrahydro-pyrazolo[4,3-c]pyridin-1-yl]-2-hydroxy-propyl}-piperidin-4-yl)-2-oxo-2,3-dihydro-benzoimidazol-1-yl]-acetic acid]
The pIC50 of the first is 0.20 log units lower: 6.08 for the first, 6.28 for the second.

Going from `Cn1c(=O)n(C2CCN(CCCn3nc(-c4ccc(C(F)(F)F)cc4)c4c3CCN(C(=O)c3c[nH]cn3)C4)CC2)c2ccccc21` [Example 331, 1-(1-{3-[5-(1H-Imidazole-4-carbonyl)-3-(4-trifluoromethyl-phenyl)-4,5,6,7-tetrahydro-pyrazolo[4,3-c]pyridin-1-yl]-propyl}-piperidin-4-yl)-3-methyl-1,3-dihydro-benzoimidazol-2-one] to `Cn1c(=O)n(C2CCN(CCCn3nc(-c4ccc(C(F)(F)F)cc4)c4c3CCN(C(=O)OCc3ccccc3)C4)CC2)c2ccccc21` [Example 345, 1-{3-[4-(3-Methyl-2-oxo-2,3-dihydro-benzoimidazol-1-yl)-piperidin-1-yl]-propyl}-3-(4-trifluoromethyl-phenyl)-1,4,6,7-tetrahydro-pyrazolo[4,3-c]pyridine-5-carboxylic acid benzyl ester], the pIC50 falls from 7.22 to 6.26 (0.96 log units).

Compared with `CC(=O)N1CCc2c(c(-c3ccc(Cl)cc3)nn2CC(O)CN2CCC(Nc3ccccc3F)CC2)C1` (stereo not drawn) [Example 217, 1-(3-(4-Chloro-phenyl)-1-{3-[4-(2-fluoro-phenylamino)-piperidin-1-yl]-2-hydroxy-propyl}-1,4,6,7-tetrahydro-pyrazolo[4,3-c]pyridin-5-yl)-ethanone], `CC(=O)N1CCc2c(c(-c3ccc([N+](=O)[O-])cc3)nn2CC(O)CN2CCC(n3c(=O)n(C)c4ccccc43)CC2)C1` (stereo not drawn) [Example 342, 1-(1-{3-[5-Acetyl-3-(4-nitro-phenyl)-4,5,6,7-tetrahydro-pyrazolo[4,3-c]pyridin-1-yl]-2-hydroxy-propyl}-piperidin-4-yl)-3-methyl-1,3-dihydro-benzoimidazol-2-one] is 0.34 log units higher in pIC50: 6.08 for the first, 6.42 for the second. The second is the more potent here.

Going from `CCOC(=O)Cn1c(=O)n(C2CCN(CC(O)Cn3nc(-c4ccc(Cl)c(C)c4)c4c3CCN(C(C)=O)C4)CC2)c2ccccc21` (stereo not drawn) [Example 305, [3-(1-{3-[5-Acetyl-3-(4-chloro-3-methyl-phenyl)-4,5,6,7-tetrahydro-pyrazolo[4,3-c]pyridin-1-yl]-2-hydroxy-propyl}-piperidin-4-yl)-2-oxo-2,3-dihydro-benzoimidazol-1-yl]-acetic acid ethyl ester] to `Cc1cc(-c2nn(CC(O)CN3CCC(n4c(=O)n(CCN5CCOCC5)c5ccccc54)CC3)c3c2CN(S(C)(=O)=O)CC3)ccc1Cl` (stereo not drawn) [Example 281, 1-(1-{3-[3-(4-Chloro-3-methyl-phenyl)-5-methanesulfonyl-4,5,6,7-tetrahydro-pyrazolo[4,3-c]pyridin-1-yl]-2-hydroxy-propyl}-piperidin-4-yl)-3-(2-morpholin-4-yl-ethyl)-1,3-dihydro-benzoimidazol-2-one], the pIC50 falls from 6.96 to 6.48 (0.48 log units). The first is the more potent here.
